Screening results deposited in PubChem BioAssay by several laboratories.
UUG fidelity: modulators of start codon recognition fidelity in yeast; AID 602363; hit rate 0.13% among 350,000; activity score, % at 18.7 µM; S. cerevisiae UUG-firefly luciferase reporter, luminescence/redox ratio;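 active = replicate mean at a twofold rise or more, about +100% in these data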;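 note: firefly luciferase made from a UUG start codon reports start codon fidelity; reporter light over untreated wells divided by growth signal over untreated wells; some hits fall short of that in this replicate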
Tn6 DDE FP: inhibitors of Tn6 peptide binding to fibrin DD(E), primary screen, biochemical, fluorescence polarization, human fibrin, Tn6 probe. Fibrin DD(E) TRITC-Tn6 fluorescence polarization displacement. inhibition, % at 8.3 µM. 0.21% of 370,000 active;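 active = inhibition above a per-campaign cutoff: mean of compounds within control limits plus 3 SD, cut at about 15% in these data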;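 note: 0% = median of all compound wells on the plate and 100% = blocking peptide control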
DDE Tn7 FP inh: inhibitors of Tn7 peptide binding to fibrin DD(E), primary screen, biochemical, fluorescence polarization, human fibrin, Tn7 probe | Fibrinogen beta chain (Homo sapiens), P02675 | FP displacement of FITC-Tn7 peptide from fibrin DD(E); 0% = median of compound wells per plate | inhibition, % at 8.3 µM | 0.13% of 370,000 active;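 active = inhibition above the mean of compounds falling within the control limits plus 3 SD of them, cut at about 14% in these data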;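 note: 0% = plate median of compound wells and 100% = 10 µM Aha-Tn7 peptide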
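system = human fibrin DD(E) protein | quantity = DD(E) 2 µM final | medium = Tris/NaCl/CaCl2 buffer, pH 7.8 | also added = labelled Tn7 tracer, 0.1 µM | compound dosing = single point at 8.3 µM | timing = compound with protein 10 min, then 3 h after probe, room temperature | signal = FP measurement | benchmarks = Aha-Tn7 high control | repeats = one replicate per compound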
PglD inh: C. jejuni PglD acetyltransferase inhibitors, primary screen, biochemical, DTNB colorimetric, single point; UDP-N-acetylbacillosamine N-acetyltransferase PglD (Campylobacter jejuni); purified PglD enzyme, DTNB colorimetric CoA detection; inhibition, % at 12.5 µM; 0.098% of 360,000 active; in the data active = inhibition above about 16%, passing the limit was not always enough
DDE Tn6 FP ctr: counter-screen hit for Tn6 peptide-fibrin DD(E) binding disruption. 2% of 680 active. AID 720621. inhibition, % at 8.3 µM. shares compounds with Tn6 DDE FP. TRITC-Tn6 fluorescence polarization displacement; 0% = median of compound wells, not DMSO;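 active = inhibition above the mean of test compounds lying between the control limits plus 3 SD of those, cut at about 14% in these data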;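 note: 0% = median of compound wells and 100% = wells with Aha-Tn7 blocking peptide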
DDE Tn6 confirm: inhibitors of Tn6 peptide binding to fibrin DD(E), confirmation, biochemical, fluorescence polarization, human fibrin, Tn6 probe; FP displacement of TRITC-Tn6 peptide from DD(E); 0% = per-plate median of test wells; shares compounds with Tn6 DDE FP; AID 720631, 2013; inhibition, % at 8.3 µM; 10% of 680 active;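 active = inhibition above the mean of compounds lying within the control limits plus 3 SD, cut at about 16% in these data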;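 note: 100% = high control wells holding a competing inhibitor peptide at 10 µM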
Starred values were filed as active, the others as inactive. Shown are actives, neighbours in structure and some others; about 0.45% of the full set was active somewhere.

Screening CN(C)N1C(N)=C(C#N)C(c2ccc3c(c2)OCO3)C2=C1CCCC2=O (stereo not given) returned UUG fidelity 9, Tn6 DDE FP 15*, DDE Tn7 FP inh 6, PglD inh -1, DDE Tn6 FP ctr 0 and DDE Tn6 confirm -3.
CN(C)N1C(N)=C(C#N)C(c2cccc(Cl)c2)C2=C1CCCC2=O (stereo not given) was read as UUG fidelity -3, Tn6 DDE FP 9, DDE Tn7 FP inh 6 and PglD inh 0.
`CC12CCC(C(=O)NCC3CCCO3)(OC1=O)C2(C)C` (stereo not given) gave UUG fidelity -12, Tn6 DDE FP 16*, DDE Tn7 FP inh 2, PglD inh 2, DDE Tn6 FP ctr 4 and DDE Tn6 confirm 3.
CC12CCC(C(=O)NCc3ccccc3)(OC1=O)C2(C)C (stereo not given) was read as UUG fidelity -20, Tn6 DDE FP -5, DDE Tn7 FP inh 5 and PglD inh 1.
For C/C=C/c1ccc2c(c1)O[C@H](CN(C)CC1CC1)[C@H](C)CN([C@@H](C)CO)S2(=O)=O the results were UUG fidelity -10.
Screening CC(NCc1cccnc1)c1ccccc1 (stereo not given) returned UUG fidelity -1, Tn6 DDE FP 16*, DDE Tn7 FP inh 7, PglD inh -3, DDE Tn6 FP ctr 0 and DDE Tn6 confirm 3.
CC(C)CC#Cc1ccc2c(c1)O[C@@H](CN(C)C(=O)c1cnccn1)[C@@H](C)CN([C@H](C)CO)S2(=O)=O was read as PglD inh 3.
For COc1ccc2c(c1OC)c(=O)n1c3ccc(OC(C)C(=O)NCCCN4CCOCC4)cc3c3ccnc2c31 (stereo not given) the results were UUG fidelity 3 and PglD inh -3.
Screening CC(Oc1ccc2c(c1)c1ccnc3c4ccccc4c(=O)n2c13)C(=O)NCCN1CCOCC1 (stereo not given) returned UUG fidelity 7, Tn6 DDE FP 36*, DDE Tn7 FP inh -1, PglD inh -1, DDE Tn6 FP ctr 4 and DDE Tn6 confirm 8.
For COc1ccc2c(c1OC)c(=O)n1c3ccc(OC(C)C(=O)NCCN4CCOCC4)cc3c3ccnc2c31 (stereo not given) the results were UUG fidelity -3, Tn6 DDE FP 27*, DDE Tn7 FP inh 2, PglD inh -5, DDE Tn6 FP ctr -5 and DDE Tn6 confirm -5.

Overlap with the part before: 2 compounds; new compounds follow.
Screening CC(Oc1ccc2c(c1)c1ccnc3c4ccccc4c(=O)n2c13)C(=O)NCCN1CCOCC1 (stereo not given) returned UUG fidelity 7, Tn6 DDE FP 36*, DDE Tn7 FP inh -1, PglD inh -1, DDE Tn6 FP ctr 4 and DDE Tn6 confirm 8.
For COc1ccc2c(c1OC)c(=O)n1c3ccc(OC(C)C(=O)NCCN4CCOCC4)cc3c3ccnc2c31 (stereo not given) the results were UUG fidelity -3, Tn6 DDE FP 27*, DDE Tn7 FP inh 2, PglD inh -5, DDE Tn6 FP ctr -5 and DDE Tn6 confirm -5.
Screening CC(Oc1ccc2c3c(c(=O)oc2c1)CCCC3)C(=O)NCCN1CCOCC1 (stereo not given) returned UUG fidelity -11, Tn6 DDE FP 3, DDE Tn7 FP inh -3 and PglD inh 4.
For C/C=C/c1ccc2c(c1)O[C@H](CN(C)Cc1ccccn1)[C@@H](C)CN([C@@H](C)CO)S2(=O)=O the results were UUG fidelity -14 and PglD inh 0.
For Cc1ccc(NS(=O)(=O)c2ccc(Cl)c(C(=O)Nc3ccccc3-c3nc4ccccc4[nH]3)c2)cc1C the results were Tn6 DDE FP 16*, DDE Tn7 FP inh -5, DDE Tn6 FP ctr 8 and DDE Tn6 confirm 3.
COc1ccc(NC(=O)N(C)C[C@@H]2OCc3ccccc3-c3c(n(C)c4ccccc34)C(=O)N([C@H](C)CO)C[C@H]2C)c(OC)c1 was read as UUG fidelity 4, Tn6 DDE FP 17*, DDE Tn7 FP inh -6, PglD inh -1, DDE Tn6 FP ctr -4 and DDE Tn6 confirm -5.
Screening COc1ccc(NC(=O)N(C)C[C@H]2OCc3ccccc3-c3c(n(C)c4ccccc34)C(=O)N([C@H](C)CO)C[C@H]2C)c(OC)c1 returned PglD inh 3.
